Experimental data published in PubChem BioAssay AID677 (Vanderbilt High Throughput Screening Facility, 2007).
Only a part is listed here, and it is no random draw. Calls of active or inactive are those of the source.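 How the source made its calls: active means calcium response below the same-plate mean of wells given acetylcholine alone at its 80%-effect dose, minus 3 SD; inactive means the rest.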

Sequences of proteins named here, by UniProt entry; tags and fusion partners are left off. A change or cut given only in a name is not applied to a line headed by its entry.
UniProt P08482: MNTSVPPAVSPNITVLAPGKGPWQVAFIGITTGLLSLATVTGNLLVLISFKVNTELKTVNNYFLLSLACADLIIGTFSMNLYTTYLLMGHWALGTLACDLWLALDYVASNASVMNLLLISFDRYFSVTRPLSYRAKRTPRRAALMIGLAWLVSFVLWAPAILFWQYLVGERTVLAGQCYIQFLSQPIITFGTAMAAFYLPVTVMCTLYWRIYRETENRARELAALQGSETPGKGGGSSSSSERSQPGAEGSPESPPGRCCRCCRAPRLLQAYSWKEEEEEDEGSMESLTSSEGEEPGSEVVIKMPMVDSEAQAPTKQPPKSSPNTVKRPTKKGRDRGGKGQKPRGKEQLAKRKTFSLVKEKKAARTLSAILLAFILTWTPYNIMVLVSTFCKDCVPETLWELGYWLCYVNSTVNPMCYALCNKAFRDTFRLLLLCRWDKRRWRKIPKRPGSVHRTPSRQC

These molecules were tested against Muscarinic acetylcholine receptor M1 (Rattus norvegicus) (UniProt P08482) (assay: blockers of ACh-evoked M1 calcium signal – CHO cells, Fluo-4 calcium, duplicate, confirmation (AID 677;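 further: raw fluorescence intensity difference in arbitrary instrument units and not normalized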)). Settings: ACh EC80 antagonism, at 10 µM, active compounds read low.

**Q.** For `Cc1ccc(OCC(=O)OC2CN3CCC2CC3)cc1` (stereo unspecified), which calcium response (max-min fluorescence) is on record?
**A.** active: 384
